# Test results published in PubChem BioAssay AID746 (The Scripps Research Institute Molecular Screening Center, 2007).
# Protein sequences, listed by entry. Tags and fused reporters are not part of them.
# UniProt P53779, whole entry: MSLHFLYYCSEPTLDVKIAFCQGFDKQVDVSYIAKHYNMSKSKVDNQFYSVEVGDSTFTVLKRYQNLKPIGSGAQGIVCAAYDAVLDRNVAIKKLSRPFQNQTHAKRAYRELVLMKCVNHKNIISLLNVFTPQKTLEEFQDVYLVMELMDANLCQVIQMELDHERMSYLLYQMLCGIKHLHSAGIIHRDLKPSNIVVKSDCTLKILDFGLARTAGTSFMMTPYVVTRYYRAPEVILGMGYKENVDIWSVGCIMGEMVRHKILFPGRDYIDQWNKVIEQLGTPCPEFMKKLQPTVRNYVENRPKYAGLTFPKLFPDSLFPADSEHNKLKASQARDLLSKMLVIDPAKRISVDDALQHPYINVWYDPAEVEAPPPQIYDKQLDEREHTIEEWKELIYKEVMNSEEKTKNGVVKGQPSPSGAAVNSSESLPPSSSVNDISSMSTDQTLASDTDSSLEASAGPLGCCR
# This is a selection; strong and weak results do not stand in their true shares. Calls of active or inactive are those of the source. Cut-off read from the data, not from the text of the source: active = inhibition above about 17%; inactive = the rest.
# Molecular target: Mitogen-activated protein kinase 10 (Homo sapiens) (UniProt P53779)
# Assay: JNK3 kinase activity inhibitors, primary screen, biochemical, human, purified enzyme (AID 746);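 note: 0% = DMSO and 100% = reference inhibitor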
# Settings: HTS, at 8 µM, active compounds read high
row,SMILES,inhibition
1,CCC(CO)(C(=O)OC1CN2CCC1CC2)c1ccccc1 (configuration not stated),inactive: 4.44%
2,CCOc1ncccc1C(=O)NCC1(N2CCOCC2)CCCCC1,inactive: 5.32%
3,Fc1ccccc1NC1CCN(Cc2ccccc2)CC1,inactive: -0.26%
4,N/C(=N\O)c1c(N)no[n+]1[O-],inactive: -0.04%
5,N#CC1(Nc2ccccc2)CCN(CCc2ccccc2)CC1,inactive: 0.54%
6,COc1ccc(NC2CCN(CCc3ccccc3)CC2)c(OC)c1,inactive: -7.26%
7,O=C(OC1CN2CCC1CC2)C1c2ccccc2Oc2ccccc21 (configuration not stated),inactive: 0.78%
